From US10507210B2, “Kinase inhibitor prodrug for the treatment of cancer” (Auckland UniServices Limited, priority 2014, dated 2019)

How the values were obtained:
FaDu cells = assay: FaDu anti-proliferative assay, oxic vs anoxic 24 h exposure; type: cell-based, human; conditions: 4 h anoxia of 24 h exposure
pAkt = assay: FaDu target modulation Western blot, pAkt; conditions: 1 h drug, EGF 50 ng/mL 15 min
pERK = assay: FaDu target modulation Western blot, pERK; conditions: 1 h drug, EGF 50 ng/mL 15 min
[1] = test system: WT EGFR driven H125 xenografts; assay: H125 NSCLC xenograft, single agents and cetuximab combinations; conditions: for R % response rate (ORR): evaluable tumors with PR or CR
[2] = test system: WT EGFR driven H125 xenografts; conditions: mouse, in vivo

Cetuximab: clinically approved EGFR inhibitor
anoxic IC50 higher than oxic (FaDu cells): 4 fold | concentration failing to silence pAkt activity (pAkt): > 10 μM | concentration failing to silence pERK activity (pERK): > 10 μM | PD, number of tumors (RECIST criteria) ([1]; evaluable tumors): 4 | R % response rate (ORR) [1]: 17% | R % response rate (ORR) ([1]; listed as cetuximab): 17% | Mean tumor volume on day 27 ± SEM ([1]; tarloxotinib 48 mg/kg qw, cetuximab 0.25 mg/mouse q3d, afatinib 6 mg/kg qd): 874 ± 140 mm^3 | Day of average weight loss nadir [2]: [day 2]
